Results taken from paper PMC5402287, “Glucose-dependent regulation of pregnane X receptor is modulated by AMP-activated protein kinase” (Scientific Reports, 2017).

The chains behind the UniProt entries cited, without tags or fusion partners. Where a name states a change or a piece, a line headed by the entry shows the natural chain unless it says otherwise.
UniProt Q13131: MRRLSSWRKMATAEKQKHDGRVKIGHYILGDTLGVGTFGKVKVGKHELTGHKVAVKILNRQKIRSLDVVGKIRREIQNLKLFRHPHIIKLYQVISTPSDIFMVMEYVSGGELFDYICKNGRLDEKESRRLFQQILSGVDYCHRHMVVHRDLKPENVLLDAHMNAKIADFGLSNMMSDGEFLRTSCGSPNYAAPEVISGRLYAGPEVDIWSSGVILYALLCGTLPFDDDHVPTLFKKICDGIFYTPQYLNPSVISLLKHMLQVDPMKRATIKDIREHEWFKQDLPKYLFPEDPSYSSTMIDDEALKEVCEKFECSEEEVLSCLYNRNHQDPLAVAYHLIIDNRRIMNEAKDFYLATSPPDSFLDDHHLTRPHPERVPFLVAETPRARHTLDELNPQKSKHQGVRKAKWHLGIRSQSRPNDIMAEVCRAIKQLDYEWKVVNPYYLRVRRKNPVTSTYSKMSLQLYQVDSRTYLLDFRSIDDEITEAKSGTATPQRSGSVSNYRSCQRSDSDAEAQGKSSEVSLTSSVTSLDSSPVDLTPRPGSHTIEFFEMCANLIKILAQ
UniProt Q9Y478: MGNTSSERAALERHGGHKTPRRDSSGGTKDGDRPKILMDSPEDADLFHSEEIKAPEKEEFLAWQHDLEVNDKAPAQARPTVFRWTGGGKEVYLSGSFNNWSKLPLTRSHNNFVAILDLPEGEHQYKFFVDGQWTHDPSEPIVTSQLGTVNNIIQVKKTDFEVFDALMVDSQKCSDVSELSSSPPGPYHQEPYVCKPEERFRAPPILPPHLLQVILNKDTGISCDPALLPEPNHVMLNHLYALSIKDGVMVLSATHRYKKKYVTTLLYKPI

Target: T1, recombinant active AMPK (A1/B1/G2) (Homo sapiens, UniProt Q13131+Q9Y478)
T1 construct: purchased SignalChem (Richmond, BC, Canada)
Test: in vitro AMPK kinase assay coupled with ADP-Glo assay
Assay type: biochemical

IC50: 0.127 µM
SMILES: c1cc(-c2cnn3cc(-c4ccc(OCCN5CCCCC5)cc4)cnc23)ccn1 [Dorsomorphin, 6-[4-(2-piperidin-1-ylethoxy)phenyl]-3-pyridin-4-ylpyrazolo[1,5-a]pyrimidine]
